This assay deals with T1, Recombinant human calpain I (Homo sapiens, UniProt P07384).
T1 construct: made in house
T1 sequence (P07384 1-714): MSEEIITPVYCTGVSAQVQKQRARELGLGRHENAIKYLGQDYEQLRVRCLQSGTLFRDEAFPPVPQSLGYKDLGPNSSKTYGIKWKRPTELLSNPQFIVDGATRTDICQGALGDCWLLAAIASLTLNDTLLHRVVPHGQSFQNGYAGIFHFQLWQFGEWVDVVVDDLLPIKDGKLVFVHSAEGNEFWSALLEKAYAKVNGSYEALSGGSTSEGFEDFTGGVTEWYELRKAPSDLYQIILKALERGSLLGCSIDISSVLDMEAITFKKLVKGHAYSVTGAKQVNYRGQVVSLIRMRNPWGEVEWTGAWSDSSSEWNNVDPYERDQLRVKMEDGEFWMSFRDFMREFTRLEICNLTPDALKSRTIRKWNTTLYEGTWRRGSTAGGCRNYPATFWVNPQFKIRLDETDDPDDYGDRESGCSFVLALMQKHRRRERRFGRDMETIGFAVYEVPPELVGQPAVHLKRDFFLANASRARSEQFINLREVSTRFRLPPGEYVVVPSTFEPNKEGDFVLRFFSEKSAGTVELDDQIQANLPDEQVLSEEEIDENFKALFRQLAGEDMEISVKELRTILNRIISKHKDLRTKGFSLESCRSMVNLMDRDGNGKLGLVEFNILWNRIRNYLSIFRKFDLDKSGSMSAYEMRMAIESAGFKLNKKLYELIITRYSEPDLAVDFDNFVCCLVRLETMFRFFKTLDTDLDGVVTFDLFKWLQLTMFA
T1 sequence (P04632 1-268 partner): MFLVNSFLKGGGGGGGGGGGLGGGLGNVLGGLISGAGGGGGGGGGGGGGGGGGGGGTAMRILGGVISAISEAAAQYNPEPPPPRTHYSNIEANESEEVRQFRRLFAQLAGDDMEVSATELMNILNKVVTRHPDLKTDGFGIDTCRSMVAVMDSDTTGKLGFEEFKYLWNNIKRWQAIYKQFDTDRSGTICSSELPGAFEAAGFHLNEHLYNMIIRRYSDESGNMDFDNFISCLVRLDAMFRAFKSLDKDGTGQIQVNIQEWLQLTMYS
Nature of the assay: Inhibition of Calpain (Succ-Leu-Tyr-MNA substrate hydrolysis). Format: biochemical. To be noted: 0.2 mM Succ-Leu-Tyr-MNA, pH 7.5, five to seven concentrations. How it is done: To evaluate inhibitory activity, stock solutions (40 times concentrated) of each compound to be tested were prepared in 100% anhydrous DMSO and 5 μL of each inhibitor preparation were aliquoted into each of three wells of a 96-well plate. Recombinant human calpain I, prepared by the method of Meyer et al. (Biochem., J. 1996, 314: 511–519), was diluted into assay buffer (i.e., 50 mM Tris, 50 mM NaCl, 1 mM EDTA, 1 mM EGTA, and 5 mM β-mercaptoethanol, pH 7.5, including 0.2 mM Succ-Leu-Tyr-MNA), and 175 μl was aliquoted into the same wells containing the independent inhibitor stocks as well as to positive control wells containing 5 μl DMSO, but no compound. To start the reaction, 20 μl of 50 mM CaCl2 in assay buffer was added to all wells of the plate, excepting three, which were used as background signal baseline controls. Substrate hydrolysis was monitored every 5 minutes for a total of 30 minutes. […]
Inhibition of calpain I activity was calculated as the percent decrease in the rate of substrate hydrolysis in the presence of inhibitor relative to the rate in its absence. […] The results were plotted as percent inhibition versus log inhibitor concentration, and the IC50 was calculated by fitting the data to the four-parameter logistic equation shown below using the program GraphPad Prism (GraphPad Software, Inc., San Diego, Calif.). y=d+[(a−d)/(1+(x/c)^b)] […]

As usually defined, the IC50 is the concentration needed to halve the response being measured.

Molecules are shown by their SMILES.

On to `CC(C)[C@H](NC(=O)OCc1ccccc1)C(=O)N[C@@H](Cc1ccccc1)C(=O)C(=O)NOCc1ccccc1` [Example 10, Cbz-Val-Phe-CONHOBn], for which the IC50 amounted to 12 nM.

Values taken from patent publication US7060683B2, “Hydroxamate-containing cysteine and serine protease inhibitors” (Cephalon, Inc., priority 1998, dated 2006).
